Laboratory results published in patent publication US10809222B2, “Opioid detection based on high quality graphene transistor arrays and a synthetic mu receptor” (priority 2013, dated 2020).

System: human μ opioid receptor expressed in HEK293 cells
Test: Competitive TR-FRET (HTRF) binding competition assay with native MUR and naltrexone-derived fluorescent antagonist
Details: negative control
Excerpt: FIG. 16. […] Data is used to calculate HTRF ratios, and represent the mean±standard error of mean of quadruplicates. ΔF is used for the comparison of different runs of the same assay which reflects the signal to background of the assay. ΔF=[(Ratiosample−Ratiobackgroud)/Ratiobackgroud](%).
A recently developed methodology which uses a fluorescently labeled ligand and the native MUR was used to investigate the ligand-binding capabilities of the water-soluble receptors.

Substance: HSA: human serum albumin, a soluble helical protein, negative control
- change in the fluorescence ratio (665 nm/620 nm): no significant change
